Here are results for 1 compound from patent publication US20250161419A1, “SERPIN PEPTIDES AND METHODS OF USING THE SAME” (SERPIN PHARMA, LLC, priority 2022, published 2025).

One assay deals with TSLP. Description: Poly IC induced TSLP in HaCat human keratinocytes (ELISA). In kind it is cell-based. The settings on record: Poly IC 50 μg/ml 24 hours, SP163M 100 μg/ml, p=0.0045 vs vehicle. Here is the method: Cells were pretreated with either vehicle or SP163M (100 μg/ml). TSLP was measured in the supernatant via ELISA (p=0.0045 vs. vehicle treated Poly IC induced cells). FIG. 10B: HaCat cells treated as in FIG. 10A were analyzed via the CellTiter-Glo® Luminescent Cell Viability Assay by Promega. The percent change from untreated (no Poly IC) cells were compared between SP163M vs. vehicle treated poly IC induced control (p=0.0068). FIG. 10C: HaCat cells were insulted with TNFα and immunoblotted for phospho-IkBa (Ser32). GAPDH served as a loading control and signal normalization.
In this model of dermal inflammation, SP163M decreased a key cytokine (TSLP) that controls allergic responses, and protected cells from death.
(In general: An ELISA detects its analyte on a solid surface through an enzyme-linked reagent.)

For a further assay, the system named is CD11b. As to the kind of experiment: Immunoblot of injured sciatic nerve two days after PNL, CD11b. The conditions noted are these: 2 μg/g s.c., vs vehicle. It counts as in vivo, mouse. The method, then:
Neuropathic pain model: Mice (n=30) were randomly assigned to two different groups: SP163M (2 μg/g; s.c. 100 μl) and vehicle (H20 s.c. 100 μl). Mice were treated 1 h prior to partial nerve ligation (PNL) and then daily at least 1 h prior to behavior testing for 2 weeks. PNL studies were performed as previously disclosed^59 and adapted for mice.^57 Male mice were anesthetized with 3% isoflurane (Vetone, USA) in 1.5 L/min oxygen (Praxair, USA) and maintained with 2.5% isoflurane. An incision was made along the long axis of the femur. […] Filaments were presented in a consecutive fashion either ascending or descending using the up-down method as previously disclosed^60 and modified for mice.^57,61 The filament that caused paw withdrawal 50% of the time (the 50% PWT) was determined. […]
Immunoblots of sciatic nerve: Sciatic nerves were harvested 2 days after PNL to identify early molecular and cellular changes. […] Nerves were lysed in RIPA buffer and equal amounts of protein (20 μg) from nerves lysates, as determined by BCA Protein Assay (Bio-Rad, Hercules, CA, USA), were subjected to 10% SDS-PAGE and electro-transferred to nitrocellulose membranes. […] Primary antibodies were detected with HRP-conjugated species-specific secondary antibodies (Cell Signaling Technology, Danvers, MA, USA; cat #7076S or 4S; 1:5000). […]
A general note: Immunoblotting shows a protein as a band on a membrane.

Regarding `CCCC[C@H](NC(=O)[C@H](CC(C)C)NC(=O)[C@H](Cc1ccccc1)NC(=O)[C@@H](NC(=O)[C@H](Cc1ccccc1)NC(=O)[C@@H]1CCCN1C(=O)[C@H](CCCCN)NC(=O)[C@H](CC(N)=O)NC(=O)[C@H](Cc1ccccc1)NC(=O)[C@H](CCCCN)NC(=O)[C@@H](NC(C)=O)C(C)C)C(C)C)C(=O)N[C@H](C(=O)N[C@@H](CCC(=O)O)C(=O)N[C@@H](CCC(N)=O)C(=O)N[C@@H](CC(N)=O)C(=O)N[C@H](C(=O)N[C@@H](CCCCN)C(N)=O)[C@@H](C)O)[C@@H](C)CC` [SP163M, Ac-VKFNKPFVFLNIeIEQNTK-NH2], in the assay with TSLP, the TSLP in supernatant result was “decrease of both TSLP”. In the assay on CD11b, the “reduction of CD11b levels in injured sciatic nerve (densitometric analysis)” value is on record as 10 fold.
